# Binding of CDR-mutated scFvs to a peptide of the spike HR2 region

The measurements come from Engelhart et al. 2022 (doi:10.1038/s41597-022-01779-4) through the FLAb antibody collection.

Target: peptide PDVDLGDISGINAS, taken from heptad repeat 2 (HR2) of SARS-CoV-2 spike.

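The starting antibody came from a phage panning campaign against this peptide. In library AAYL50, one, two or three CDR residues were substituted; doubles and triples were drawn at random. AlphaSeq pools MATa yeast showing the antibodies with MATalpha yeast showing the peptide. Pairs that bind mate more often; barcode pairs of the diploids are counted by sequencing. Read counts were normalised to the haploid input and turned into Kd by a linear fit to BCL2-family pairs of known affinity, for each replicate. The assay was run in three technical replicates.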

The variants keep the heavy chain, the linker and the frameworks of Ab-14 (scFv order VH, the linker GGGGSGGGGSGGGGS, VL).
VH: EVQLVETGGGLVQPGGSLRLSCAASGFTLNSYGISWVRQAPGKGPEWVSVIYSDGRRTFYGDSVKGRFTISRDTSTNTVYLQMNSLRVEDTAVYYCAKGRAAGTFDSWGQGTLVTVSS
VL: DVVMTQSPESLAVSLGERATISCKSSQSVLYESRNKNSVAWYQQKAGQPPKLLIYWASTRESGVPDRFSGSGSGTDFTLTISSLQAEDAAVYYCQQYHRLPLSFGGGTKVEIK

The parent's light chain CDRs are KSSQSVLYESRNKNSVA, WASTRES, QQYHRLPLS; each variant's own CDRs replace them letter for letter. Every variant below is changed at S62 of the VL (sequential numbering). The Kd shown is the geometric mean over detected replicates; a lower Kd is a better binder. "no signal" means that the variant was in the library but no mating with the target was seen in any replicate; the authors take this as a sign of poor binding, and no number exists. In this assay the parent's reference entry averaged 4.4 nM; its copy inside this library read 48 nM.

CDR-L1	CDR-L2	CDR-L3	Kd	replicates with signal
KSSISVLYESRNKNIVA	WASTREE	QQYHRLPLS	no signal	0 of 3
KSSQSVLYESRNKNSVA	WASTYEN	QRYHRLPLS	no signal	0 of 3
KKSGSVLYESRNKNSVA	WASTREE	QQYHRLPLS	20 nM	3 of 3
KSSQSVLYESRNKNSVA	WASTREL	QQYHRLPLS	8.2 nM	3 of 3
KSSQSVLYESRNKNSVI	WASAREQ	QQYHRLPLS	13 µM	1 of 3
KSSQSVPYESQNKNSVA	WASTRER	QQYHRLPLS	3.1 nM	3 of 3
KSSQSVLYSSRNKNSVA	WASTREV	QQYNRLPLS	400 nM	3 of 3
KSSPSVLYESRNKNWVA	WASTRED	QQYHRLPLS	190 nM	3 of 3
KSSQSVLYESRWKNSDA	WASTREE	QQYHRLPLS	1.4 mM	1 of 3
QSSQSFLYESRNKNSVA	WASTREV	QQYHRLPLS	19 nM	3 of 3
KSSQSVSYESRNKNSVA	WASTREK	QMYHRLPLS	14 nM	3 of 3
KKSQSVLYESRNKNSVA	WASTAEC	QQYHRLPLS	480 µM	1 of 3
KSSQSVLYESRNKMSVA	WASTYEH	QQYHRLPLS	no signal	0 of 3
KSGQSVLYESRNKNSVA	WASTREN	QQYHRLQLS	210 nM	3 of 3
KSSQSVLYESRIKNSVA	WAFTREI	QQYHRLPLS	16 µM	1 of 3
KSSQSVLYESRNKNSVG	WASTRER	QMYHRLPLS	no signal	0 of 3
KSSSSVLYESRNKNSVA	WASTFEE	QQYHRLPLS	9.2 µM	1 of 3
KSSQSVLYESRNKNSVA	AASTREH	QQYHRGPLS	no signal	0 of 3
KSSQSVLYESRAKNSVA	WASTRNV	QQYHRLPLS	18 nM	3 of 3
KSSQSVLYESRNKNSVA	WASTRER	QQYHRLPLS	8.6 nM	3 of 3
KSSQSRLYESRNKNSVA	WASTRET	QQYSRLPLS	16 nM	3 of 3
KSSGSVLYESRNKNFVA	WASTREH	QQYHRLPLS	4.5 µM	2 of 3
KSSQSVLYESRNKNSVA	WASTREH	HQWHRLPLS	no signal	0 of 3
KSSQSVLYPSRNKNSVA	WASTREL	QQYHILPLS	1.5 µM	3 of 3
KSSQSVEYESRNKNSVA	WASTREN	QQYHRLPLS	4.2 nM	3 of 3
KSSQSVLYEYRNKNSVA	WACTRER	QQYHRLPLS	4.5 µM	3 of 3
KSSQSVLYRSRNKNSVA	WVSTREW	QQYHRLPLS	2.2 µM	1 of 3
KSSQSVLYESRNKNSLA	WASTREI	QQYHWLPLS	15 nM	3 of 3
KSSQSVLYESRNDNMVA	WASTREF	QQYHRLPLS	13 µM	3 of 3
KSSQSVLMESRNKNSVA	WASTRED	QQYHRLPLP	6.6 µM	1 of 3
KSDQSVLYESRNKNSCA	WASTREK	QQYHRLPLS	no signal	0 of 3
KSSQSVLYESRNKNVVA	WACTREH	QQYHRLPLS	no signal	0 of 3
KSSQSILYESRNKNSVA	WASTREM	QQYHRGPLS	no signal	0 of 3
KSSQSVLYESWNKNSVA	WASTREA	QQYHRLPLS	8.3 nM	3 of 3
KSSQSVLYESRNKRSAA	WASTREK	QQYHRLPLS	no signal	0 of 3
KSSQSVLYESRNKNSVA	PASTREH	QQYHPLPLS	41 µM	2 of 3
KASQSVCYESRNKNSVA	WASTREN	QQYHRLPLS	5.4 nM	3 of 3
KSSQSVLYESRNKNSVA	WASTREV	QQYHRLPLS	6.2 nM	3 of 3
KSSQSVLYQSRNKNSVA	WASTRED	QQYHRLPLS	13 nM	3 of 3
KSSQSVLYESRNKNSVD	WASTREG	QQYWRLPLS	no signal	0 of 3
KSSQSVLYTSREKNSVA	WASTREQ	QQYHRLPLS	6.6 nM	3 of 3
KSSQSVLYERRNKNSIA	WASTREE	QQYHRLPLS	1.4 nM	3 of 3
KSSQSVLYESRNHNSVA	WASTRLA	QQYHRLPLS	80 nM	3 of 3
KQSQSVLYEWRNKNSVA	WASTRET	QQYHRLPLS	29 nM	3 of 3
KSSQSVVHESRNKNSVA	WASTREH	QQYHRLPLS	5.3 nM	3 of 3
KSSQSVLYESRNKNSVA	WASTAEF	QQYHRLPLS	no signal	0 of 3
KSSQEVLYESRNKNSVA	WASTREY	QQYARLPLS	2.9 nM	3 of 3
KSSQSVLYESRNKNAVA	WASTREN	QQPHRLPLS	no signal	0 of 3
KSSQSVLYESRNKNSVA	WAQTREV	QYYHRLPLS	14 µM	1 of 3
KSSQSVLYESRNKNSVT	WASTREW	LQYHRLPLS	68 µM	1 of 3
KSSQSVLYESRNKNSVA	EASTGEK	QQYHRLPLS	4.0 nM	3 of 3

Extract of 4 entries:

| CDR-L1 | CDR-L2 | CDR-L3 | Kd | replicates with signal |
|---|---|---|---|---|
| KSSQSVLYESRNKNSVG | WASTRER | QMYHRLPLS | no signal | 0 of 3 |
| KKSGSVLYESRNKNSVA | WASTREE | QQYHRLPLS | 20 nM | 3 of 3 |
| KQSQSVLYEWRNKNSVA | WASTRET | QQYHRLPLS | 29 nM | 3 of 3 |
| KSSQSVLYESRIKNSVA | WAFTREI | QQYHRLPLS | 16 µM | 1 of 3 |

Empty control strains, which show no peptide, gave a signal in 18% of pairings with library AAYL50; the median was 15 µM and 95% of these signals were weaker than 970 nM. No background was subtracted.